Test results reported in patent publication US8080632B2, “Peptide mimics of melanocyte stimulating hormone” (The Feinstein Institute for Medical Research, priority 2005, dated 2011).

Experiments:
[1] = test system: RAW 264.7 cells; assay: Endotoxin-stimulated TNF release with agouti (Table 1); format: cell-based, murine
[2] = test system: RAW 264.7 cells; assay: LPS-induced HMGB1 release by macrophages; format: cell-based, murine; details: peptide at 100 pM, LPS 100 ng/ml, overnight incubation
[3] = test system: Human peripheral blood mononuclear cells; assay: HMGB1-induced TNF release by human macrophages in culture; format: cell-based; details: 6 hours
[4] = test system: RAW 264.7 cells; assay: HMGB1-induced TNF release by RAW cells (also with anti-MC1R Ab or H89)

Mouse agouti (93-132)-NH2
TNF levels with agouti plus LPS versus LPS alone [1]: significantly above those observed with LPS alone | effect of agouti on attenuation of LPS-induced TNF release by α-MSH and MECO-1 [1]: reversed the attenuation

adrenocorticotropic hormone (SYSMEHFRWGKPVGKKRRPVKVYPNGAEDESAEAFPLEF; mammalian melanocortin ACTH (1-39))
LPS-induced release of HMGB1 [2]: indistinguishable from α-MSH | LPS-induced release of HMGB1 ([2]; listed as ACTH): markedly blunted | attenuation of HMGB1-induced TNF release [3]: very similar results | suppression of HMGB1-induced TNF release, dose dependence ([4]; data not shown): highly significant suppression in the subpicomolar range

O=S(=O)(NCCNC/C=C/c1ccc(Br)cc1)c1cccc2cnccc12 [H89]
effect of H89 on peptide attenuation of HMGB1-induced TNF ([4]; H89 1 μM, peptides 10^−10 M, 6 h): abrogated the effects of the three peptides
